## Measured affinities in a library of Ab-14 light chain variants

The measurements come from Li et al. 2023 (doi:10.1038/s41467-023-39022-2) through the FLAb antibody collection.

Antigen: PDVDLGDISGINAS, a 14-residue peptide of the SARS-CoV-2 spike HR2 region.

Ab-14 is the parent antibody, in scFv form: VH, then the linker GGGGSGGGGSGGGGS, then VL. The heavy chain is unchanged in all variants.
VH: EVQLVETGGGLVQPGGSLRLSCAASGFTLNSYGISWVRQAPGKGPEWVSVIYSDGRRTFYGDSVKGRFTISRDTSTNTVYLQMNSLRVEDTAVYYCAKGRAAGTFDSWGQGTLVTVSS
VL: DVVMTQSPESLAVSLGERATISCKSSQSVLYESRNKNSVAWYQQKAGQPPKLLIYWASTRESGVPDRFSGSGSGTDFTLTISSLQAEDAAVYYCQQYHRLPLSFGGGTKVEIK

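The starting antibody came from a phage panning campaign against this peptide. The variants were designed computationally from a first round of random CDR variants and then made and measured. Group labels follow the data file (Ctrl: baseline library sampled from a position-specific scoring matrix, with some repeated check sequences; GP: Gaussian process model; HC: hill climbing; Gen: genetic algorithm; Gibbs: Gibbs sampling; a sequence that several methods proposed may carry one label only). The assay is AlphaSeq: two haploid yeast populations carry antibody and antigen on their surface. The frequency of each diploid, read from paired DNA barcodes, reflects how well the two displayed proteins bind. Read counts were normalised to the haploid input and turned into Kd by a linear fit to BCL2-family pairs of known affinity, for each replicate. Mating was done six times.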

Variants are written as CDR1, CDR2 and CDR3 of the light chain (limits as in the source). Parent: KSSQSVLYESRNKNSVA, WASTRES, QQYHRLPLS.
This list holds designs with at most six substitutions.
Kd is apparent (estimated from mating counts) and averaged on the log scale over replicates with a signal. Smaller is tighter.
A pair that was not seen in any replicate is written "nd"; this usually means weak binding, but a binder can also be missed.
A sequence that the file lists under several names has all its replicates pooled.
The authors averaged sequences with at least three values out of six and counted those with two or fewer as poor binders.
A sequence measured in both rounds can read differently, since the two assays cover different ranges.
Nonspecific signal, from three strains lacking the peptide, appeared in 4% of pairings of all light chain designs, centred on 430 nM (5% of these signals below 38 nM); values are not corrected for it.

Variant KLRQSTLYESRNKNSVA / SASTRLS / QQYHRLPLS [GP_HC] gave 13 nM (6 of 6 replicates).
Variant RSSQGVLYESRNKNSVA / WASTRES / QQYHRLPLS [Ctrl] gave 210 nM (1 of 6 replicates).
Variant KVEQSVLYESRNKNSVA / EASTRES / QQYHRLPLS [GP_Gen] gave 22 nM (6 of 6 replicates).
Variant KSMQSVPYEDRNKNSVA / EASTRCS / QQYHRLPLS [GP_Gibbs] gave 1.3 nM (6 of 6 replicates).
Variant HLSDSVLYESRNKNSVA / NASTRES / QQYHRLPLK [GP_HC] gave 570 pM (6 of 6 replicates).
Variant KASQSVLYESRVKNSVA / SASMRES / QQYHRLPLS [GP_Gibbs] gave nd (0 of 6 replicates).
Variant KSSQSVLYESRNKNSVA / WASTRES / QQCHRLPLS [Ctrl] gave nd (0 of 6 replicates).
Variant KSSQSILYESRNKNSVA / WASTREP / EQYHRLPLS [Ctrl] gave nd (0 of 6 replicates).
Variant KSSQSVLEESRNKNSVA / GASTRVS / QQYHRLPLS [Ctrl] gave 2.9 nM (6 of 6 replicates).
Variant KSSISVLYESANSNSVA / EASTRES / QQYHRLPLS [Ctrl] gave 2.0 nM (6 of 6 replicates).
Variant KSSQSVLYESRNKNSVA / WASTREE / QQYHRLPLV [Ctrl] gave 130 nM (2 of 6 replicates).
Variant KQSWSELYGSRNKNSVA / DASQRES / QQYHRLPLS [GP_Gibbs] gave 950 pM (6 of 6 replicates).
Variant HSQVSVQYESRNKNGVA / WASTRES / QQYHHLPLS [Ctrl] gave nd (0 of 6 replicates).
Variant KSSQSVLYESRNKNSVA / WASTRES / QQYERLPLS [Ctrl] gave 57 nM (4 of 6 replicates).
Variant KLSQSWLYESRMKNSVA / NASTRES / QQYHRLPLS [GP_Gen] gave 5.8 nM (6 of 6 replicates).
Variant KISQSAQYESRNKNSVA / WGSTRES / QAYHRLPLS [Ctrl] gave 41 nM (6 of 6 replicates).
Variant KFSQSVLYEWRDKNSVA / EASTRSS / QQYHRLPLT [Ctrl] gave 770 pM (6 of 6 replicates).
Variant KSSISELYESRNKNSVA / EASTRES / QQYHRLPLS [GP_HC] gave 1.1 nM (6 of 6 replicates).
Variant KLSQSELYESRNKNSVA / NASLRES / QQYHRLPLS [GP_Gen] gave 3.1 nM (6 of 6 replicates).
Variant KVSQSVMYESTNKNSVA / EASTRES / QQYHRLPLS [Ctrl] gave 3.5 nM (6 of 6 replicates).
Variant KVSQSVLYESRMKNSVA / WASTRES / QQYHRLPLS [Ctrl] gave 4.6 nM (6 of 6 replicates).
Variant KVSQSFLYESRNKNSVA / EASTRCS / QQYHRLPLS [GP_Gen] gave 2.1 nM (6 of 6 replicates).
Variant KFSQSFLYESRNKNSVA / DASTRES / QQYHRLPLS [GP_Gen] gave 320 pM (6 of 6 replicates).
Variant KYSQSVLYESRNKNNVA / DASTRES / QQYHRLPLS [GP_Gen] gave 370 pM (6 of 6 replicates).
Variant KSSQSVLYESQNKNSVW / FASTRES / QQYHRLPLS [Ctrl] gave nd (0 of 6 replicates).
Variant KLRQSTLYESRNSNSVA / NASTRES / QQYHRLPLS [GP_HC] gave 610 pM (6 of 6 replicates).
Variant KFSQSVLYESRNLNSVA / NASTRES / QWYHRLPLS [GP_HC] gave 28 nM (6 of 6 replicates).
Variant KSSQSVLYESSMKNSVA / WADTRES / QQYHRLPLS [Ctrl] gave 37 nM (6 of 6 replicates).
Variant KSSQSVLYESRNKNSVA / WASTRES / QQYHRLILS [Ctrl] gave nd (0 of 6 replicates).
Variant KSSQSVLNESSNKNSVA / WASTRES / QQYHRLPLS [Ctrl] gave 16 nM (6 of 6 replicates).
Variant KFSQQVLYESRVKNSVA / NASQRLS / QQYHRLPLS [GP_Gibbs] gave 3.8 nM (6 of 6 replicates).
Variant KLRQSTKYESRNQNSVA / QASTRES / QQYHRLPLS [GP_HC] gave 1.6 nM (6 of 6 replicates).
Variant KISQSVLMESLNKNSVA / HASTRLD / QQYHRLPLS [GP_Gibbs] gave 1.9 nM (6 of 6 replicates).
Variant KFSQSVSYESRNKNSVA / NASTRES / QQYHSLPLW [Ctrl] gave 2.0 nM (6 of 6 replicates).
Variant KHSQVYLYESRNKNSVA / GASTRES / QQYHRLPLS [GP_HC] gave 1.2 nM (6 of 6 replicates).
Variant KLPQSQLYESRNKNSVA / QASQRES / QQYHRLPLS [GP_Gen] gave 640 pM (6 of 6 replicates).
Variant KMSTSILYESRNKNSVA / WASQRES / QQYFRLPLS [Ctrl] gave nd (0 of 6 replicates).
Variant KSSPSVLYESRNKNSVA / DASTRES / QQYHRLPLS [Ctrl+GP_Gibbs] gave 700 pM (12 of 12 replicates).
Variant KSPQSELYESRNKNSVA / WASTRES / QQYHHLPLS [Ctrl] gave 22 nM (6 of 6 replicates).
Variant KSSQSVLYESANKNSLA / WASTRES / QQYWRLPLS [Ctrl] gave 28 nM (6 of 6 replicates).
Variant KSSQQVLYESRNKNSVA / WASTRES / QQYHRLPLS [Ctrl] gave 72 nM (2 of 6 replicates).
Variant FLEQSVLYESRNKNSVA / NASTRES / QQYHRLPLS [GP_Gen] gave 610 pM (6 of 6 replicates).
Variant KLSQSVPYEERNKNSVA / NASQRES / QQYHRLPLS [GP_Gen] gave 840 pM (6 of 6 replicates).
Variant KSSQSVLMESVNKNSEA / WASTREA / QQYERLPLS [Ctrl] gave nd (0 of 6 replicates).
Variant KVSQSVPYEQRNKNSVA / EASTRES / QQYHRLPLS [GP_Gen] gave 540 pM (6 of 6 replicates).
Variant KLSQSVLYESRNTNSVA / NASQRES / QQYHRLPLS [GP_Gen] gave 800 pM (6 of 6 replicates).

Excerpt, the first 7 entries:

With KLRQSTLYESRNKNSVA / SASTRLS / QQYHRLPLS [GP_HC] the result was 13 nM (6 of 6 replicates).
With RSSQGVLYESRNKNSVA / WASTRES / QQYHRLPLS [Ctrl] the result was 210 nM (1 of 6 replicates).
With KVEQSVLYESRNKNSVA / EASTRES / QQYHRLPLS [GP_Gen] the result was 22 nM (6 of 6 replicates).
With KSMQSVPYEDRNKNSVA / EASTRCS / QQYHRLPLS [GP_Gibbs] the result was 1.3 nM (6 of 6 replicates).
With HLSDSVLYESRNKNSVA / NASTRES / QQYHRLPLK [GP_HC] the result was 570 pM (6 of 6 replicates).
With KASQSVLYESRVKNSVA / SASMRES / QQYHRLPLS [GP_Gibbs] the result was nd (0 of 6 replicates).
With KSSQSVLYESRNKNSVA / WASTRES / QQCHRLPLS [Ctrl] the result was nd (0 of 6 replicates).